Test system: C. difficile vegetative cells (R20291 strain)
Conditions: MH broth, 24 h at 37° C., anaerobic

CC[C@H](C)[C@H](NC(=O)[C@H](CCCCN)NC(=O)[C@H](CCC(=O)O)NC(=O)[C@H](CCCCN)NC(=O)[C@H](CO)NC(=O)[C@H](CCCCN)NC(=O)[C@H](CCCNC(=N)N)NC(=O)[C@H](Cc1ccccc1)NC(=O)[C@H](Cc1ccccc1)NC(=O)[C@H](CC(=O)O)NC(=O)CNC(=O)[C@H](CC(C)C)NC(=O)[C@@H](N)CC(C)C)C(=O)NCC(=O)N[C@@H](CCCCN)C(=O)N[C@@H](CCC(=O)O)C(=O)N[C@@H](Cc1ccccc1)C(=O)N[C@@H](CCCCN)C(=O)N[C@@H](CCCNC(=N)N)C(=O)N[C@H](C(=O)N[C@H](C(=O)N[C@@H](CCC(N)=O)C(=O)N[C@@H](CCCNC(=N)N)C(=O)N[C@H](C(=O)N[C@@H](CCCCN)C(=O)N[C@@H](CC(=O)O)C(=O)N[C@@H](Cc1ccccc1)C(=O)N[C@@H](CC(C)C)C(=O)N[C@@H](CCCNC(=N)N)C(=O)N[C@@H](CC(N)=O)C(=O)N[C@@H](CC(C)C)C(=O)N[C@H](C(=O)N1CCC[C@H]1C(=O)N[C@@H](CCCNC(=N)N)C(=O)N[C@H](C(=O)N[C@@H](CCC(=O)O)C(=O)N[C@@H](CO)C(=O)O)[C@@H](C)O)C(C)C)[C@@H](C)CC)C(C)C)[C@@H](C)CC [LL-37]
MIC, minimum inhibitory concentration for vegetative cell growth: 10 µg/mL
